What is called Cmax is the peak of the concentration-time curve.

One series relates to SW620 spheroids. Particulars: static 2D or 3D, Supplementary Fig. 1.
A short description of series [1]: In vivo PK profile determination in mouse plasma (LC-MS/MS, population-based PK model).
Where [2] appears, read: male, Swiss athymic nu/nu, in vivo, 10 mg/kg.

Consider `CN(C)CCCOc1ccc(-c2ccc3ncc4c(c3c2)n(C2CCOCC2)c(=O)n4C)cn1` [AZD0156, 8-{6-[3-(Dimethylamino)propoxy]pyridin-3-yl}-3-methyl-1-(tetrahydro-2 H-pyran-4-yl)-1,3-dihydro-2 H-imidazo[4,5-c]quinolin-2-one], for which the “monotherapy effect on spheroid size, morphology, viability” value in the series on SW620 spheroids is listed as “no spheroid size, morphology or viability effect”. In series [1] (setting [2]), the Cmax was 192 nM, the concentration at 7 h amounted to 108 nM, the concentration at 8 h was 95.6 nM and the concentration at 9 h amounted to 84.7 nM. In series [1] (setting [2]), this compound registered a concentration at 10 h of 75.2 nM, a concentration at 11 h of 66.7 nM, a concentration at 12 h of 59.1 nM and a concentration at 13 h of 52.7 nM. In addition, in series [1] (setting [2]), the concentration at 14 h stood at 46.6 nM, the concentration at 15 h turned out to be 41.5 nM and the concentration at 16 h came out at 36.7 nM. The compound also registered a ka in series [1] (population PK model parameter, mean) of 1.4 h⁻¹.

The values are drawn from PMC8385015, “Tumour-on-chip microfluidic platform for assessment of drug pharmacokinetics and treatment response” (Communications Biology, 2021).
